# Some compounds may have been tested in ways that are not shown here.
# How the values were obtained:
# [1] = Distribution coefficient in the system octanol/water
# [2] = Distribution of alfentanil, fentanyl and sufentanil, cubic phase/water, HPLC of water phase
Structure (SMILES),distribution coefficient in the system oktanol/water [1],"Kbl/w ([2]; pH 4.0, equation 2, 96 h)","[X]w ([2]; pH 6.0, 96 h, [X]0 0.100 mg/litre) [mg/mL]","Kbl/w ([2]; pH 6.0, equation 2, 96 h)","[X]w ([2]; pH 4.09, 96 h, [X]0 0.500 (alfentanil) or 0.200 (fentanyl) mg/litre) [mg/mL]","Kbl/w ([2]; pH 4.09, equation 2, 96 h)","[X]w ([2]; pH 7.33, 96 h, [X]0 0.500 (alfentanil) or 0.200 (fentanyl) mg/litre) [mg/mL]","Kbl/w ([2]; pH 7.33, equation 2, 96 h)","[X]w ([2]; pH 9.66, 96 h, [X]0 0.500 (alfentanil) or 0.200 (fentanyl) mg/litre) [mg/mL]","Kbl/w ([2]; pH 9.66, equation 2, 96 h)"
CCC(=O)N(c1ccccc1)C1CCN(CCc2ccccc2)CC1,813,,,,,,,,,
CCC(=O)N(c1ccccc1)C1(COC)CCN(CCc2cccs2)CC1,1778,19.6,0.00535,53,,,,,,
CCC(=O)N(c1ccccc1)C1(COC)CCN(CCn2nnn(CC)c2=O)CC1,128,,,,0.203,4.4,0.0148,98,0.0180,80

# — patent publication US20020006436A1, “USE OF A LIQUID CRYSTALLINE PHASE FOR DETERMINING THE DISTRIBUTION OF A CHEMICAL SUBSTANCE BETWEEN A HYDROPHOBIC AND A HYDROPHILIC ENVIRONMENT” (priority 1996, published 2002)
